Among the data in patent publication US20030232986A1, “Inhibitors of caspases” (Vertex Pharmaceuticals Incorporated, priority 1998, published 2003) are Ki and IC50 values, retold here.

Protein sequences, listed by entry. Tags and fused reporters are not part of them. Residues count along the entry.
UniProt P29466, 120-297 limits assumed: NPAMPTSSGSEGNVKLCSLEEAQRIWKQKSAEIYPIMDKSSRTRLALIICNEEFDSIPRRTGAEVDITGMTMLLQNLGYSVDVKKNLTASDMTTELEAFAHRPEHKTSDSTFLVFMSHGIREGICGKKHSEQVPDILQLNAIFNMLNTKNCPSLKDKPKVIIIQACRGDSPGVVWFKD
UniProt P29466, 317-404 limits assumed: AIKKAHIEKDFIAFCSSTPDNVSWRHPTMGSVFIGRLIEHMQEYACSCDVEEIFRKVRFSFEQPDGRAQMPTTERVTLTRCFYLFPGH

SMILES strings stand for the structures.

One assay concerns the target Caspase-1 (Homo sapiens, UniProt P29466). The experiment in a line: Caspase-1 enzyme inhibition (Ki). Particulars: read-out: Caspase-1 Ki; substrate Suc-YVAD-pNA 80 μM, 37° C., pH 7.5.
Assay [1] has as its system Human Peripheral Blood Mononuclear Cells (PBMC), mature IL-1β. The experiment in a line: PBMC cell assay: IL-1β assay with human peripheral blood mononuclear cells. Particulars: read-out: PBMC IC50; LPS-stimulated human PBMC, mature IL-1β in supernatant by ELISA. From the text: IL-1β Assay with a Mixed Population of Human Peripheral Blood Mononuclear Cells (PBMC) or Enriched Adherent Mononuclear Cells
Processing of pre-IL-1β by ICE can be measured in cell culture using a variety of cell sources. Human PBMC obtained from healthy donors provides a mixed population of lymphocyte subtypes and mononuclear cells that produce a spectrum of interleukins and cytokines in response to many classes of physiological stimulators. Adherent mononuclear cells from PBMC provides an enriched source of normal monocytes for selective studies of cytokine production by activated cells.
An initial dilution series of test compound in DMSO or ethanol is prepared, with a subsequent dilution into RPMI-10% FBS media (containing 2 mM L-glutamine, 10 mM HEPES, 50 U and 50 ug/ml pen/strep) respectively to yield drugs at 4× the final test concentration containing 0.4% DMSO or 0.4% ethanol. The final concentration of DMSO is 0.1% for all drug dilutions. A concentration titration which brackets the apparent Ki for a test compound determined in an ICE inhibition assay is generally used for the primary compound screen.
Generally 5-6 compound dilutions are tested and the cellular component of the assay is performed in duplicate, with duplicate ELISA determinations on each cell culture supernatant. […]

Assay [2] has as its system Human whole blood, IL-1β production. Kind of assay: Whole blood assay for IL-1β production. The note with it: read-out: Whole Blood IC50; LPS-stimulated whole blood, IL-1β by ELISA. The protocol: The whole blood assay is a simple method for measuring the production of IL-1β (or other cytokines) and the activity of potential inhibitors. The complexity of this assay system, with its full complement of lymphoid and inflammatory cell types, spectrum of plasma proteins and red blood cells is an ideal in vitro representation of human in vivo physiologic conditions.
Set incubator or water bath at 30° C. Aliquot 0.25 ml of blood into 1.5 ml eppendorf tubes. Note: be sure to invert the whole blood sample tubes after every two aliquots. Differences in replicates may result if the cells sediment and are not uniformly suspended. Use of a positive displacement pipette will also minimize differences between replicate aliquots.
Prepare drug dilutions in sterile pyrogen-free saline by serial dilution. A dilution series which brackets the apparent Ki for a test compound determined in an ICE inhibition assay is generally used for the primary compound screen. For extremely hydrophobic compounds, prepare compound dilutions in fresh plasma obtained from the same blood donor or in PBS-containing 5% DMSO to enhance solubility.
Add 25 μl test compound dilution or vehicle control and gently mix the sample. Then add 5.0 μl LPS solution (250 ng/ml stocked prepared fresh: 5.0 ng/ml final concentration LPS), and mix again. Incubate the tubes at […] in a water bath for 16-18 hr with occasional mixing. […]

Take `C[C@H](NC(=O)c1cccc2ccccc12)C(=O)N1CSC(C)(C)[C@H]1C(=O)N[C@H](C=O)CC(=O)O`: the Ki on Caspase-1 is less than 10 nM. Besides, the IC50 in assay [1] was in the range of 500 to 1000 nM; in assay [2] it was 2500 to 7500 nM.
Turning to `C[C@H](NC(=O)c1nccc2ccccc12)C(=O)N1CSC(C)(C)[C@H]1C(=O)N[C@H](C=O)CC(=O)O`, the Ki at Caspase-1 is less than 10 nM. The values for the IC50 in assay [1] and in assay [2] were 500 to 1000 nM and 2500 to 7500 nM, respectively.

Broadly, the Ki is the equilibrium dissociation constant of an inhibitor or competing ligand from its target. As usually defined, the IC50 is the midpoint of a concentration-inhibition curve.
